Values belong to the molecule of their own block, whether it stands above or below them.
Experiments:
hAT2 = hAT2 (Homo sapiens, UniProt P50052); test: hAT2 receptor binding assay (SPA, [125I]-Sar1-Ile8-Angiotensin II); settings: read-out: hAT2 IC50; membrane of HEK-293 cells overexpressing hAT2; 0.1 nM 125I ligand
SD Rat Plasma = test: Plasma protein binding rate (PPB) test, equilibrium dialysis; settings: 4 hours, 37°C
human plasma = test: as above; settings: 4 hours, 37°C
CYP3A4 = CYP3A4 (Homo sapiens, UniProt P08684); test: Human liver microsome CYP inhibition experiment; type: in vitro ADME; settings: read-out: Cytochrome P450 isoenzyme IC50 3A4; pooled human liver microsomes
Procedure: (§1) The research project used a specific probe substrate for each isoenzyme to evaluate the inhibitory effect of the test compound on human liver microsomal cytochrome P450 isoenzymes (CYPIA2. CYP2C9, CYP2C19, CYP2D6, and CYP3A4). Mixed human liver microsomes (pooled HLM, n≥50) were purchased from Corning Inc. (Steuben, N.Y., USA) or other qualified suppliers, and were stored in a refrigerator below −60° C. before use. The diluted series of to-be-tested compound working solutions were added to an incubation system containing cofactors of human liver microsomes, a probe substrate and a circulation system, and the methanol content was about 1% (v/v) of the final incubation system. A control containing no the to-be-tested compound and containing a solvent was used as a control for enzyme activity (100%). The concentration of the analyte in the sample was determined by liquid chromatography-tandem mass spectrometry (LC/MS/MS). The calculation was performed by using the average of the concentrations of the samples (a blank solvent, a positive control inhibitor, or the to-be-tested compound). Non-linear regression analysis was performed by using SigmaPlot (V.11) on the average percent activity of the compound to be tested to the concentration. The IC50 value was calculated by a three-parameter or four-parameter inflection logarithmic equation.

By UniProt entry, the sequences of proteins in these tests, tags left out.
UniProt P50052, whole entry: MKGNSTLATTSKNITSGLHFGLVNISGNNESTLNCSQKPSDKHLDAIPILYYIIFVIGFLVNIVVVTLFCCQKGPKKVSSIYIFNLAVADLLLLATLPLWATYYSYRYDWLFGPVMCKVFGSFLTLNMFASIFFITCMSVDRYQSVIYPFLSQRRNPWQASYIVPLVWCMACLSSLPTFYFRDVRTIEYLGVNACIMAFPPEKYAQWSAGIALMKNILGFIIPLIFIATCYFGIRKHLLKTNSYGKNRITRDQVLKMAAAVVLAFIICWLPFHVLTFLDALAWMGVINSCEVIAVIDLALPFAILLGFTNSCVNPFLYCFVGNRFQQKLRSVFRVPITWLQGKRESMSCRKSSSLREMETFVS
UniProt P08684, whole entry: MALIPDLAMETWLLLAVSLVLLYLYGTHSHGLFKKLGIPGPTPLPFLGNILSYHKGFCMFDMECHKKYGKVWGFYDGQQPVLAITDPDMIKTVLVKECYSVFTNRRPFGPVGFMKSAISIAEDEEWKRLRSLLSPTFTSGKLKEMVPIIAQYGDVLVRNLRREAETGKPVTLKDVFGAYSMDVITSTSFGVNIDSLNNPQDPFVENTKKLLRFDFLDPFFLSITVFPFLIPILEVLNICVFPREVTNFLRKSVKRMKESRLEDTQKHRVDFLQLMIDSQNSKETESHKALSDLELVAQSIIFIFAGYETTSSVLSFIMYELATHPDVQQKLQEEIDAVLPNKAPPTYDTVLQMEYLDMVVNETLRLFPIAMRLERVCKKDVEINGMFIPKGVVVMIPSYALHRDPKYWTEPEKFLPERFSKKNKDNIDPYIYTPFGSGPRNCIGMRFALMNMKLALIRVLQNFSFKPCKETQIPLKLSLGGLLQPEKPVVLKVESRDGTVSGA
UniProt P11712, whole entry: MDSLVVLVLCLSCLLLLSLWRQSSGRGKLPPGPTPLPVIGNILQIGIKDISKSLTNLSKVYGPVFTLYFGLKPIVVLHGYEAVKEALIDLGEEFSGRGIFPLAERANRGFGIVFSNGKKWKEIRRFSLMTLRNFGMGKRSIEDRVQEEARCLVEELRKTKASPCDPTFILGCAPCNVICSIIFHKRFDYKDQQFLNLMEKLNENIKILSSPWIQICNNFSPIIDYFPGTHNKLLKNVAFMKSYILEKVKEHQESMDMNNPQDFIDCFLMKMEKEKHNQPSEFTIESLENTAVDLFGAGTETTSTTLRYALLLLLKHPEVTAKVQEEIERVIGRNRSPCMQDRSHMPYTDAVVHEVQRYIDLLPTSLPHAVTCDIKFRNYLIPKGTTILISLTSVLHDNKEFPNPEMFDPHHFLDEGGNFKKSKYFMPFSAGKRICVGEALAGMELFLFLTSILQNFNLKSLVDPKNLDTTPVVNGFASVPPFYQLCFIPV
UniProt P05177, whole entry: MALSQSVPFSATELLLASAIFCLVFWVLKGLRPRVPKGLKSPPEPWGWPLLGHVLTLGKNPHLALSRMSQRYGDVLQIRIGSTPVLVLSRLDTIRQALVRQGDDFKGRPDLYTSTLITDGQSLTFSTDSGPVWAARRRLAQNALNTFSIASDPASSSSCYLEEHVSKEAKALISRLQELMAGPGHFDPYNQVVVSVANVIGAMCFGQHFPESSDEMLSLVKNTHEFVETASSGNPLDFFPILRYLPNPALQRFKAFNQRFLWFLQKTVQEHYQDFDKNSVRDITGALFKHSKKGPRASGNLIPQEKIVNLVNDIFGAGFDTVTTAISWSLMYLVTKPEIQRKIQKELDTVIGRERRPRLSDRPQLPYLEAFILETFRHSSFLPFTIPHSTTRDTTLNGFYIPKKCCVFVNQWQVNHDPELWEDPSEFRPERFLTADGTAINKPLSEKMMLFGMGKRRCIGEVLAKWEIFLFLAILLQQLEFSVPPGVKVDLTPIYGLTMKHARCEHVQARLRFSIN
UniProt P10635, whole entry: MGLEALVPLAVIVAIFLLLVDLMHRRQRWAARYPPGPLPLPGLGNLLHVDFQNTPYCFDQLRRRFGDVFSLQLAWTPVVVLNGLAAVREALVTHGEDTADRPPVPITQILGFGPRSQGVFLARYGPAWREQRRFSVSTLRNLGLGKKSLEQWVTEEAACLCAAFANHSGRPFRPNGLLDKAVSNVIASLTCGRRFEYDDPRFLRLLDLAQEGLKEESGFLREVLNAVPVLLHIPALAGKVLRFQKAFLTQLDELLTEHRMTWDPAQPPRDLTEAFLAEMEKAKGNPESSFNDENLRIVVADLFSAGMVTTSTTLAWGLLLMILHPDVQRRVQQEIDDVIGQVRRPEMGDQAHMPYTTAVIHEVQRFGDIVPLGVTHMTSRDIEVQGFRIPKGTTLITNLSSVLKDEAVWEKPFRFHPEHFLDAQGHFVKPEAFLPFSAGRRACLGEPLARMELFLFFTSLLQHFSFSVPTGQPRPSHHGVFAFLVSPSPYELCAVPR
UniProt P33261, whole entry: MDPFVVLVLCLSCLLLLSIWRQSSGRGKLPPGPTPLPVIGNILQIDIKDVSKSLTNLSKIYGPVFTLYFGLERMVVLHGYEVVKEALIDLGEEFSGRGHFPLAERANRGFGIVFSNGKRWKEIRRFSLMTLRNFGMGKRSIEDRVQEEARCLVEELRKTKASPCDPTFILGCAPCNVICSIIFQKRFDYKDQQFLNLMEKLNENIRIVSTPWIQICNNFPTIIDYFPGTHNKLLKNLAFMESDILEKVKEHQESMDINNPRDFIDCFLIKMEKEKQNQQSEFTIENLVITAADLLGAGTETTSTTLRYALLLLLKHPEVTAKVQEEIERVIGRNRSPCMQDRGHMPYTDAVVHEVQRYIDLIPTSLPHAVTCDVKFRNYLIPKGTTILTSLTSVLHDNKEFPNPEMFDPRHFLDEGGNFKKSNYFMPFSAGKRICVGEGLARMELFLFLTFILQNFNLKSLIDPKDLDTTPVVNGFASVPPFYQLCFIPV

CYP2C9 = CYP2C9 (Homo sapiens, UniProt P11712); test: Human liver microsome CYP inhibition experiment; type: in vitro ADME; settings: read-out: Cytochrome P450 isoenzyme IC50 2C9; pooled human liver microsomes
Procedure: as §1

CYP1A2 = CYP1A2 (Homo sapiens, UniProt P05177); test: Human liver microsome CYP inhibition experiment; type: in vitro ADME; settings: read-out: Cytochrome P450 isoenzyme IC50 CYP1A2; pooled human liver microsomes
Procedure: as §1

CYP2D6 = CYP2D6 (Homo sapiens, UniProt P10635); test: Human liver microsome CYP inhibition experiment; type: in vitro ADME; settings: read-out: Cytochrome P450 isoenzyme IC50 2D6; pooled human liver microsomes
Procedure: as §1

CYP2C19 = CYP2C19 (Homo sapiens, UniProt P33261); test: Human liver microsome CYP inhibition experiment; type: in vitro ADME; settings: read-out: Cytochrome P450 isoenzyme IC50 2C19; pooled human liver microsomes
Procedure: as §1

Caco-2 cells = test: Two-way permeability study in Caco-2 cells
[1] = Determination of kinetic solubility; settings: pH 7.4, 24 hours at room temperature, theoretical maximum 200 μM

IC50 (hAT2): 270 nM
Structure (SMILES): Cc1ccc2c(c1OCc1ccccc1)C[C@H](C(=O)O)N(C(=O)[C@@H](OC1CCCC1)c1ccccc1)C2

Structure (SMILES): Cc1ccc2c(c1OCc1ccccc1)C[C@@H](C(=O)O)N(C(=O)[C@@H](OC1CCCC1)c1ccccc1)C2
IC50 (hAT2): 4 nM | Plasma Protein Binding (%) SD Rat Plasma (SD Rat Plasma): 99.9% | Plasma Protein Binding (%) Human Plasma (human plasma): 99.8% | IC50 (CYP3A4): > 50 µM | IC50 (CYP2C9): 16 µM | IC50 (CYP1A2): > 50 µM | IC50 (CYP2D6): > 50 µM | IC50 (CYP2C19): > 50 µM | Efflux ratio (Caco-2 cells): 12.6 | Papp (AB) (Caco-2 cells; A-B direction, 120 minutes): 1.15 10^−6 cm/s | Papp (BA) (Caco-2 cells; B-A direction, 120 minutes): 14.56 10^−6 cm/s | Solubility @pH = 7.4 [1]: >200.0 μM

— patent US11021445B2, “Carboxylic acid derivative as AT2R receptor antagonist” (SHANDONG DANHONG PHARMACEUTICAL CO., LTD., priority 2017, dated 2021)
